Laboratory results published in patent US20230241150A1, “Compositions and Uses Thereof” (Natur-Tech Pharmacal Co., Ltd, priority 2020, published 2023).

Tested on: brain of convulsive mice
Format: in vivo, ICR mice
Details: carbamazepine 80 mg/kg intragastric daily 7 days; PTZ 80 mg/kg i.p.; n=12
Experimental: The mice in each group were given intragastric administration daily, for 7 consecutive days. 30 minutes after the last administration, except for the blank control group, the mice in the other groups were injected intraperitoneally with 80 mg/kg of PTZ to induce convulsions in the mice. Each mouse was placed in a separate cage for observation for 30 minutes, and behavioral changes such as stages of seizure, duration, latent period and mortality rate of the mice were recorded.
After completing the behavioral observation determined by the above relevant indicators, experiments were conducted to study the effect of the composition on the contents of NO, Na-K-ATP, Asp, and 5-HT in the brain of convulsive mice. After the behavioral observation was over, the mice were immediately executed, and the brain tissues and the required organs were quickly taken out, weighed, and then the brain tissues were placed in liquid nitrogen and stored in a refrigerator at -80° C. Blood stains on the surface were washed off with pre-cooled saline before measurement. The tissues were then weighed and PBS was added in a volume ratio of 1:9 to fully homogenize the brain tissues. The homogenate was centrifuged at 3000 r/min for 20 minutes. The supernatant was collected as samples for subsequent ELISA test to detect the content of GABA, Glu, NO, Na^+-K^+-ATP, Asp, 5-HT, etc.

## NC(=O)N1c2ccccc2C=Cc2ccccc21 [Carbamazepine]
  Asp content in the brain: 42.1 ± 1.2 pg/mL
